Assay results from patent US6506765B2 (TAP Pharmaceutical Products, Inc., priority 2000, dated 2003).

Sequences of proteins named here, by UniProt entry; tags and fusion partners are left off. A change or cut given only in a name is not applied to a line headed by its entry.
UniProt P18089, whole entry: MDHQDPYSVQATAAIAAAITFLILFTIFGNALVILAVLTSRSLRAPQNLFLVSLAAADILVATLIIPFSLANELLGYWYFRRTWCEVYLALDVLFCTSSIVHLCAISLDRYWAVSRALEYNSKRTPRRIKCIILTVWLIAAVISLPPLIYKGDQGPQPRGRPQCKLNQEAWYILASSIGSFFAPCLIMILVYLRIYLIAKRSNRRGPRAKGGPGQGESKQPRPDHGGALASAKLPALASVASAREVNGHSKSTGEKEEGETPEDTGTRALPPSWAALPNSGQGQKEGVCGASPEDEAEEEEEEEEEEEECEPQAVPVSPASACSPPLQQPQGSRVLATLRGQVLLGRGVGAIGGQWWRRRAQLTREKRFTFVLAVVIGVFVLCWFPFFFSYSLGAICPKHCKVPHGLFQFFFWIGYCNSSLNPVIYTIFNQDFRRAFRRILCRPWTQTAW
UniProt P25100, whole entry: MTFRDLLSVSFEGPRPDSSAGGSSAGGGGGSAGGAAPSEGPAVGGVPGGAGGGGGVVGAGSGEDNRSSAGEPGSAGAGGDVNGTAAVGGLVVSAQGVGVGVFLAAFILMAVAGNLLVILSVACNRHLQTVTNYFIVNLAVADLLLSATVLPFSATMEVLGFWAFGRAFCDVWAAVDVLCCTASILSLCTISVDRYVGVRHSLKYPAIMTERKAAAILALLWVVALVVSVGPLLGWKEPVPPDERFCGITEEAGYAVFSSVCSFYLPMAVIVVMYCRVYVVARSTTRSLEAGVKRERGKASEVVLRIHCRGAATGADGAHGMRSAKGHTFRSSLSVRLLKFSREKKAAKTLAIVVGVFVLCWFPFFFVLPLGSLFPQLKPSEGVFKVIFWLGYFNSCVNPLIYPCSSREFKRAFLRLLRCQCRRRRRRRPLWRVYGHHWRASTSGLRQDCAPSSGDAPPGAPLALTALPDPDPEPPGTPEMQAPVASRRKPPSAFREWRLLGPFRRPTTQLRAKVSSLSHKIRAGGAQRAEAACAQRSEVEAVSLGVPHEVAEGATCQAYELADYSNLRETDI
UniProt P11229: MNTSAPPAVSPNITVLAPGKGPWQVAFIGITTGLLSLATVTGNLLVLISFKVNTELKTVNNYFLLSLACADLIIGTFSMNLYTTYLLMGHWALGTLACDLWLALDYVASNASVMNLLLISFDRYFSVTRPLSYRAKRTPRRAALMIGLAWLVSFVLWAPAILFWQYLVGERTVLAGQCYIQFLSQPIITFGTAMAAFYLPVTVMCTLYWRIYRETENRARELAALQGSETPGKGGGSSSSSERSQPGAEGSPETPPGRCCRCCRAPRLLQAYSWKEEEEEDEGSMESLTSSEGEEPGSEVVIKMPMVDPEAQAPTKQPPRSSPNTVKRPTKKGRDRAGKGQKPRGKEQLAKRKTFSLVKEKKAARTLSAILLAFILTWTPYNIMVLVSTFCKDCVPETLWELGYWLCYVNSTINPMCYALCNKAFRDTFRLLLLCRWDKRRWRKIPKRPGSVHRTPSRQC

Columns and labels:
Adrenergic α2B = Adrenergic α2B (Homo sapiens, UniProt P18089); experiment: radioligand binding assay, Adrenergic α2B
Description: (§1) Routine radioligand binding assays were performed using reference standards according to established methodology. IC50 values were determined by a non-linear least square regression analysis.

Adrenergic α1D = Adrenergic α1D (Homo sapiens, UniProt P25100); experiment: radioligand binding assay, Adrenergic α1D
muscarinic M1 = muscarinic M1 (Homo sapiens, UniProt P11229); experiment: radioligand binding assay, muscarinic M1
Description: as §1

CN1CCc2cccc3c2[C@H]1Cc1ccc(O)c(O)c1-3 [Apomorphine, (R)-5,6,6a,7-tetrahydro-6-methyl-4H-dibenzo-[de,g]quinoline-10,11-diol]
Ki (Adrenergic α2B): 4.1 nM
Ki (Adrenergic α1D): 588 nM
binding activity (muscarinic M1): No significant binding activity
